Results on 26 compounds are retold here after patent US9867833B2, “Serine/threonine kinase inhibitors” (GENENTECH, INC., priority 2013, dated 2018).

The chains behind the UniProt entries cited, without tags or fusion partners. Residues count along the entry.
UniProt P28482, 8-360: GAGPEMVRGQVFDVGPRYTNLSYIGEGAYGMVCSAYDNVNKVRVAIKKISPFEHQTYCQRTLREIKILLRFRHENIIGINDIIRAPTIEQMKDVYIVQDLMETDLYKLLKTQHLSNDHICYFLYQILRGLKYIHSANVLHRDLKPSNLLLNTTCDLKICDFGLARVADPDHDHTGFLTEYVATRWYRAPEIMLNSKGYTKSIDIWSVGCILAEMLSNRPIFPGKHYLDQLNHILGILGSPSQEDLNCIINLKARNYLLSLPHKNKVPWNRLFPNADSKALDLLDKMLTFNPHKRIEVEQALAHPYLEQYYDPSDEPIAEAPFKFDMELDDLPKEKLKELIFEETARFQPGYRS

For orientation: pIC50 means the negative decadic logarithm of the IC50, by convention in mol/L. A higher pIC50 goes with a small IC50.

pIC50: −log10 of the molar value. Values joined by “and” are separate entries in the source; they are usually repeats but may differ in a detail not shown here. Equal entries are not always repeated.

The target of the experiment is human ERK-2 (Mitogen Activated Kinase 1) (Homo sapiens (Human), UniProt P28482). The experiment in a line: ERK-2 Enzymatic Assay. The settings on record: human ERK-2 enzyme 5 nM, 25 μM ATP, S/T17 peptide substrate; isomer = configuration of CR2R3. The class given is biochemical. On the procedure: Compounds were tested in an enzymatic assay using human ERK-2 (Mitogen Activated Kinase 1), recombinantly expressed as an n-terminal 6-His fusion protein in E. coli and corresponding to aa 8-360. […] Test compounds were diluted in DMSO in 3-fold serial dilutions at 100× final concentrations. […] The data collected from each well was fit to a straight line, and the resulting rates were used to calculate percent of control. Percent of control was plotted against compound concentration, and IC50 values were determined using a four-parameter fit.
Compound `CC(C)C[C@@H]1CC(=O)N(C)c2cc(-c3ccnc(Nc4ccnn4C)n3)cc3nnc1n23` [(R) I-68, 9-isobutyl-6-methyl-4-(2-((1-methyl-1H-pyrazol-5-yl)amino)pyrimidin-4-yl)-8,9-dihydro-1,2,2a^1,6-tetraazabenzo[cd]azulen-7(6H)-one] gave a negative logarithm of the IC50 (pIC50) of 9.88.
`Cn1nccc1C[C@H]1CCOc2cc(-c3ccnc(Nc4ccnn4C)n3)cc3nnc1n23` [(S) I-92, N-(1-methyl-1H-pyrazol-5-yl)-4-(9-((1-methyl-1H-pyrazol-5-yl)methyl)-8,9-dihydro-7H-6-oxa-1,2,2a^1-triazabenzo[cd]azulen-4-yl)pyrimidin-2-amine] gave a negative-log IC50 (pIC50) of 10.07.
To `COc1ccc(C[C@H]2COc3cc(-c4ccnc(Nc5ccnn5C)c4)cc4nnc2n34)cc1F` [(R) I-49, 4-(3-(3-fluoro-4-methoxybenzyl)-3,4-dihydro-5-oxa-1,2,2a^1-triazaacenaphthylen-7-yl)-N-(1-methyl-1H-pyrazol-5-yl)pyridin-2-amine] belongs > 10.70; to `CN1C(=O)C[C@H](Cc2ccccc2)c2nnc3cc(-c4ccnc(Nc5ccnn5C)c4)cc1n23` [(S) I-61, 9-benzyl-6-methyl-4-(2-((1-methyl-1H-pyrazol-5-yl)amino)pyridin-4-yl)-8,9-dihydro-1,2,2a^1,6-tetraazabenzo[cd]azulen-7(6H)-one], 8.23.
In the case of `COc1cccc(C[C@@H]2CNc3cc(-c4ccnc(Nc5ccnn5C)n4)cc4nnc2n34)n1` [(R) I-27, 4-(3-((6-methoxypyridin-2-yl)methyl)-4,5-dihydro-3H-1,2,2a^1,5-tetraazaacenaphthylen-7-yl)-N-(1-methyl-1H-pyrazol-5-yl)pyrimidin-2-amine] it was 8.64.
As for `Cn1nccc1Nc1nccc(-c2cc3n4c(nnc4c2)[C@@H](Cc2ccccc2)CS3)n1` [(R) I-16, 4-(3-benzyl-3,4-dihydro-5-thia-1,2,2a^1-triazaacenaphthylen-7-yl)-N-(1-methyl-1H-pyrazol-5-yl)pyrimidin-2-amine], the negative-log IC50 (pIC50) was > 10.70.
In the case of `Cn1nccc1C[C@@H]1CCOc2cc(-c3ccnc(Nc4ccnn4C)n3)cc3nnc1n23` [(R) I-92, N-(1-methyl-1H-pyrazol-5-yl)-4-(9-((1-methyl-1H-pyrazol-5-yl)methyl)-8,9-dihydro-7H-6-oxa-1,2,2a^1-triazabenzo[cd]azulen-4-yl)pyrimidin-2-amine] it was 8.62; in that of `CN1C(=O)C[C@H](CC(F)(F)F)c2nnc3cc(-c4ccnc(Nc5ccnn5C)c4)cc1n23` [(R) I-86, 6-methyl-4-(2-((1-methyl-1H-pyrazol-5-yl)amino)pyridin-4-yl)-9-(2,2,2-trifluoroethyl)-8,9-dihydro-1,2,2a^1,6-tetraazabenzo[cd]azulen-7(6H)-one], 8.05; in that of `Cn1nccc1Nc1nccc(-c2cc3n4c(nnc4c2)[C@@H](Cc2ccc(Cl)cc2)CO3)n1` [(R) I-41, 4-(3-(4-chlorobenzyl)-3,4-dihydro-5-oxa-1,2,2a^1-triazaacenaphthylen-7-yl)-N-(1-methyl-1H-pyrazol-5-yl)pyrimidin-2-amine], > 10.70.
To `Cn1nccc1Nc1cc(-c2cc3n4c(nnc4c2)[C@@H](Cc2ccc(F)cc2)CO3)ccn1` [(R) I-57, 4-(3-(4-fluorobenzyl)-3,4-dihydro-5-oxa-1,2,2a^1-triazaacenaphthylen-7-yl)-N-(1-methyl-1H-pyrazol-5-yl)pyridin-2-amine] belongs > 10.70; to `COc1ccc(C[C@@H]2CCOc3cc(-c4ccnc(Nc5ccnn5C)n4)cc4nnc2n34)cc1F` [(R) I-59, 4-(9-(3-fluoro-4-methoxybenzyl)-8,9-dihydro-7H-6-oxa-1,2,2a^1-triazabenzo[cd]azulen-4-yl)-N-(1-methyl-1H-pyrazol-5-yl)pyrimidin-2-amine], > 10.70; to `CN1C(=O)C[C@H](Cc2ccc(F)cc2)c2nnc3cc(-c4ccnc(Nc5ccnn5C)c4)cc1n23` [(S) I-70, 9-(4-fluorobenzyl)-6-methyl-4-(2-((1-methyl-1H-pyrazol-5-yl)amino)pyridin-4-yl)-8,9-dihydro-1,2,2a^1,6-tetraazabenzo[cd]azulen-7(6H)-one], 7.76.
Take `CC(C)C[C@H]1CC(=O)N(C)c2cc(-c3ccnc(Nc4ccnn4C)n3)cc3nnc1n23` [(S) I-68, 9-isobutyl-6-methyl-4-(2-((1-methyl-1H-pyrazol-5-yl)amino)pyrimidin-4-yl)-8,9-dihydro-1,2,2a^1,6-tetraazabenzo[cd]azulen-7(6H)-one]: the pIC50 was 7.28.
To `C[C@@H]1Oc2cc(-c3ccnc(Nc4ccnn4C)n3)cc3nnc(n23)[C@H]1Cc1ccccc1` [(3R 4S) I-72, 4-(3-benzyl-4-methyl-3,4-dihydro-5-oxa-1,2,2a^1-triazaacenaphthylen-7-yl)-N-(1-methyl-1H-pyrazol-5-yl)pyrimidin-2-amine] belongs > 10.70; to `C[C@H]1Oc2cc(-c3ccnc(Nc4ccnn4C)n3)cc3nnc(n23)[C@H]1Cc1ccccc1` [(3R 4R) I-76, 4-(3-benzyl-4-methyl-3,4-dihydro-5-oxa-1,2,2a^1-triazaacenaphthylen-7-yl)-N-(1-methyl-1H-pyrazol-5-yl)pyrimidin-2-amine], > 10.70.
In the case of `Cn1nccc1Nc1nccc(-c2cc3n4c(nnc4c2)[C@@H](Cc2ccc(F)c(F)c2)CO3)n1` [(R) I-53, 4-(3-(3,4-difluorobenzyl)-3,4-dihydro-5-oxa-1,2,2a^1-triazaacenaphthylen-7-yl)-N-(1-methyl-1H-pyrazol-5-yl)pyrimidin-2-amine] it was > 10.70; in that of `CC(C)C1CC(=O)N(C)c2cc(-c3ccnc(Nc4ccnn4C)n3)cc3nnc1n23` (single isomer, unassigned) [(R) I-69, 9-isopropyl-6-methyl-4-(2-((1-methyl-1H-pyrazol-5-yl)amino)pyrimidin-4-yl)-8,9-dihydro-1,2,2a^1,6-tetraazabenzo[cd]azulen-7(6H)-one], 9.29.
`CN1C(=O)C[C@@H](Cc2ccccc2)c2nnc3cc(-c4ccnc(Nc5ccnn5C)c4)cc1n23` [(R) I-61, 9-benzyl-6-methyl-4-(2-((1-methyl-1H-pyrazol-5-yl)amino)pyridin-4-yl)-8,9-dihydro-1,2,2a^1,6-tetraazabenzo[cd]azulen-7(6H)-one] showed a pIC50 of 10.14.
In turn, `CN1C(=O)C[C@@H](CC(F)(F)F)c2nnc3cc(-c4ccnc(Nc5ccnn5C)c4)cc1n23` [(S) I-86, 6-methyl-4-(2-((1-methyl-1H-pyrazol-5-yl)amino)pyridin-4-yl)-9-(2,2,2-trifluoroethyl)-8,9-dihydro-1,2,2a^1,6-tetraazabenzo[cd]azulen-7(6H)-one] showed a pIC50 of 6.67.
In the case of `CN1C(=O)C[C@@H](Cc2ccc(F)cc2)c2nnc3cc(-c4ccnc(Nc5ccnn5C)c4)cc1n23` [(R) I-70, 9-(4-fluorobenzyl)-6-methyl-4-(2-((1-methyl-1H-pyrazol-5-yl)amino)pyridin-4-yl)-8,9-dihydro-1,2,2a^1,6-tetraazabenzo[cd]azulen-7(6H)-one] it was 9.50; in that of `CC(C)C1CC(=O)N(C)c2cc(-c3ccnc(Nc4ccnn4C)n3)cc3nnc1n23` (single isomer, unassigned) [(S) I-69, 9-isopropyl-6-methyl-4-(2-((1-methyl-1H-pyrazol-5-yl)amino)pyrimidin-4-yl)-8,9-dihydro-1,2,2a^1,6-tetraazabenzo[cd]azulen-7(6H)-one], 6.43.
To `CN1C(=O)N[C@H](Cc2ccc(F)cc2)c2nnc3cc(-c4ccnc(Nc5ccnn5C)n4)cc1n23` [Compound I-35, (R)-9-(4-fluorobenzyl)-6-methyl-4-(2-((1-methyl-1H-pyrazol-5-yl)amino)pyrimidin-4-yl)-8,9-dihydro-1,2,2a^1,6,8-pentaazabenzo[cd]azulen-7(6H)-one] belongs 9.76.
In the case of `CCN1C[C@H](Cc2ccccc2)c2nnc3cc(-c4ccnc(Nc5ccnn5C)n4)cc1n23` [(S) I-17, 4-(3-benzyl-5-ethyl-4,5-dihydro-3H-1,2,2a^1,5-tetraazaacenaphthylen-7-yl)-N-(1-methyl-1H-pyrazol-5-yl)pyrimidin-2-amine] it was > 10.70; in that of `CN1C[C@H](Cc2ccc(Cl)cc2)c2nnc3cc(-c4ccnc(Nc5ccnn5C)c4)cc1n23` (single isomer, unassigned) [(S) I-13, 4-(3-(4-chlorobenzyl)-5-methyl-4,5-dihydro-3H-1,2,2a^1,5-tetraazaacenaphthylen-7-yl)-N-(1-methyl-1H-pyrazol-5-yl)pyridin-2-amine], > 10.70; in that of `CCC(C#N)C1CCOc2cc(-c3ccnc(Nc4ccnn4C)n3)cc3nnc1n23` [(S) I-105, (S)-2-[4-(2-((1-methyl-1H-pyrazol-5-yl)amino)pyrimidin-4-yl)]-8,9-dihydro-7H-6-oxa-1,2,2a^1-triazabenzo[cd]azulen-9-yl)butanenitrile], > 10.70 and 10.09.
In the case of `COc1ccc(C[C@@H]2CC(=O)N(C)c3cc(-c4ccnc(Nc5ccnn5C)c4)cc4nnc2n34)cc1` [(R) I-63, 9-(4-methoxybenzyl)-6-methyl-4-(2-((1-methyl-1H-pyrazol-5-yl)amino)pyridin-4-yl)-8,9-dihydro-1,2,2a^1,6-tetraazabenzo[cd]azulen-7(6H)-one], the pIC50 is > 10.70.
